Biological target: YFP-tagged CREB-binding protein (UniProt Q92793)
Assay: MST

The chains behind the UniProt entries cited, without tags or fusion partners.
UniProt Q92793, whole entry: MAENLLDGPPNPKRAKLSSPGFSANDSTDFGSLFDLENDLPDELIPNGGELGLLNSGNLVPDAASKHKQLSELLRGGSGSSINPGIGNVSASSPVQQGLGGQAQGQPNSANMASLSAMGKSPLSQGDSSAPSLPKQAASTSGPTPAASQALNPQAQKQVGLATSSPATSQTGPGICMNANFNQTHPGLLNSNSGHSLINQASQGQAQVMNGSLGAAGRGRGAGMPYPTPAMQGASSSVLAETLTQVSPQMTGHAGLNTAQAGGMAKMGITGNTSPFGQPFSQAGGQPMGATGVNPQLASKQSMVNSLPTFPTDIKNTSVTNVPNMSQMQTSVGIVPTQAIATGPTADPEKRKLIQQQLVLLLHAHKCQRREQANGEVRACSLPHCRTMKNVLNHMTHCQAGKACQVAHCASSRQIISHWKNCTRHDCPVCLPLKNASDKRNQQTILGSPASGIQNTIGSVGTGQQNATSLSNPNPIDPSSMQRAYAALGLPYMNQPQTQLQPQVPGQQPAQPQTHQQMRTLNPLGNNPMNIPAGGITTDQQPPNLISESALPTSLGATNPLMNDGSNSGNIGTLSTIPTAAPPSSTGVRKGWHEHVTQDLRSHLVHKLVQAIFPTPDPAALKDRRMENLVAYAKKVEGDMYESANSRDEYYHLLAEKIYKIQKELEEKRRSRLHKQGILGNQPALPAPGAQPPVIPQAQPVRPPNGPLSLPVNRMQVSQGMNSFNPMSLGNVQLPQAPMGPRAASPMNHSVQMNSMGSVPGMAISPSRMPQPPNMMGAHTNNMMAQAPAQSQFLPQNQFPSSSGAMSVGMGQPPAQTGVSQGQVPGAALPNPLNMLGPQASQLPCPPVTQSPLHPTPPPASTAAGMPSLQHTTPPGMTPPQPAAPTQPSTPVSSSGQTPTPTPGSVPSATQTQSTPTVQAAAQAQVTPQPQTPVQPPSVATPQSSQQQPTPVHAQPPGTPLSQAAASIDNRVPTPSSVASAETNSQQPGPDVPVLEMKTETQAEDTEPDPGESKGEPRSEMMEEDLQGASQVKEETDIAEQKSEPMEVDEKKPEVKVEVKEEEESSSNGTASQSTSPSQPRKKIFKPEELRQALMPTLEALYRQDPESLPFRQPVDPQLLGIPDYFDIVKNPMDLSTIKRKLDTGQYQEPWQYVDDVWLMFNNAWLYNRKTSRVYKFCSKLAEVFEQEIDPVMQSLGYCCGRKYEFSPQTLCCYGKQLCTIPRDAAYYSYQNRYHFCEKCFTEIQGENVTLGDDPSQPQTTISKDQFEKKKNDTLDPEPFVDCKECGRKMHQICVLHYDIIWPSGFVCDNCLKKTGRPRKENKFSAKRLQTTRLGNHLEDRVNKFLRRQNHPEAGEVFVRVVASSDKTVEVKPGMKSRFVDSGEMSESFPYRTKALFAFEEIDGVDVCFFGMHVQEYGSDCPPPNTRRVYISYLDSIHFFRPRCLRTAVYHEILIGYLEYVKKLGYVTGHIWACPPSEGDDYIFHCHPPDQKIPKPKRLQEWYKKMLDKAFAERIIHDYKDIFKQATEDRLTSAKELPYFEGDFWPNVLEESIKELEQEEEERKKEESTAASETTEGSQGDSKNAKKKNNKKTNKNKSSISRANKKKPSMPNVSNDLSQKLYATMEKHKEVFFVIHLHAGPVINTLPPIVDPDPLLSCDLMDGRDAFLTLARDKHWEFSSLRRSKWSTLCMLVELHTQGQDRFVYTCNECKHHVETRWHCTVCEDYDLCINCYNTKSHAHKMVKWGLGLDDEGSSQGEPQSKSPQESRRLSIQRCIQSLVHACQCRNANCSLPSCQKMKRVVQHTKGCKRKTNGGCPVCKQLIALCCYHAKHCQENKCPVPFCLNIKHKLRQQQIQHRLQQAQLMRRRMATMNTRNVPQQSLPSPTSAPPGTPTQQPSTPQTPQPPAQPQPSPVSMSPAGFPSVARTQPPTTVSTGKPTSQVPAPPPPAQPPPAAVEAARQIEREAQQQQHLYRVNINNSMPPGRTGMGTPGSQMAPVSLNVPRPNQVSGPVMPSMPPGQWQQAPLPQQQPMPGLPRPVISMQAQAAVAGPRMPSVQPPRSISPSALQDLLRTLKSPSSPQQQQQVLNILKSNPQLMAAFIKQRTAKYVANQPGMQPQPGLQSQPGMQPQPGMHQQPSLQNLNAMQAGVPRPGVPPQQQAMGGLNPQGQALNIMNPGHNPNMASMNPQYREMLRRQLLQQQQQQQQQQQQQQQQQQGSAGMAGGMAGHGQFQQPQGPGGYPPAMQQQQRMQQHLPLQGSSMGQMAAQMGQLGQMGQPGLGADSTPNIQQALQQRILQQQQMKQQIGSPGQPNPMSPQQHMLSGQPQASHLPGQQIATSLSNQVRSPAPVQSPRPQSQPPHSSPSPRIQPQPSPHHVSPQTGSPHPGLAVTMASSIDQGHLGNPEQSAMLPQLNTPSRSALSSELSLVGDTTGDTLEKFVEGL

- fold increase of affinity with RA-activated RARα against TDG alone: > 4 fold
B1: HA-tagged human thymine DNA glycosylase, wild type (enzyme, UniProt Q13569 1-410, looked up)
chain: MEAENAGSYSLQQAQAFYTFPFQQLMAEAPNMAVVNEQQMPEEVPAPAPAQEPVQEAPKGRKRKPRTTEPKQPVEPKKPVESKKSGKSAKSKEKQEKITDTFKVKRKVDRFNGVSEAELLTKTLPDILTFNLDIVIIGINPGLMAAYKGHHYPGPGNHFWKCLFMSGLSEVQLNHMDDHTLPGKYGIGFTNMVERTTPGSKDLSSKEFREGGRILVQKLQKYQPRIAVFNGKCIYEIFSKEVFGVKVKNLEFGLQPHKIPDTETLCYVMPSSSARCAQFPRAQDKVHYYIKLKDLRDQLKGIERNMDVQEVQYTFDLQLAQEDAKKMAVKEEKYDPGYEAAYGGAYGENPCSSEPCGFSSNGLIESVELRGESAFSGIPNGQWMTQSFTDQIPSFSNHCGTQEQEEESHA

Reference: PMC4411359 (Genomics, Proteomics & Bioinformatics, 2014)
